Data: patent US20160346313A1, “USES OF OLIGOURONATES IN CANCER TREATMENT” (NORWEGIAN UNIVERSITY OF SCIENCE AND TECHNOLOGY, priority 2013, published 2016)

System: Capan-2 human pancreas tumour xenograft
Assay: Capan-2 human pancreas tumour xenograft model: tumour weight, with statistical analysis (ANOVA by day, Eav, log scale, exponential growth model)
Assay type: in vivo, Female Athymic Nude mice
Details: Day 4; Gemcitabine 5
Experimental: The purpose of this study was to evaluate the anti-tumour activity of G-Block as an enhancer in combination with gemcitabine in the Capan-2 human pancreas tumour xenograft model. Gemcitabine was dosed at a level that would not be curative and allow for proof of concept evaluation in this model. Efficacy was assessed by comparison of tumour weights of treated groups with the vehicle control group on Day 11 and 74 and between combination groups and their respective single agents on Day 11 and 74.
G-Block (Lot #PolyG 230712-Dp10, 95%G) was received as a white hygroscopic amorphous powder from NTNU Technology Transfer AS (Trondheim, Norway) and stored desiccated at room temperature until use. NTNU's G-Block was dissolved in MilliQ water to a concentration of 70 mg/ml to be used as the stock solution. […]
Female mice were inoculated subcutaneously in the right flank with 0.1 mL of a 50% RPMI/50% Matrigel™ (BD Biosciences, Bedford, Mass.) mixture containing a suspension of Capan-2 tumor cells (approximately 5.0×10^6 cells/mouse). Seven days following inoculation, tumors were measured using calipers and tumor weight was calculated using the animal study management software, Study Director V.2.1.1 (Study Log)^1. […] Body weights were recorded when the mice were randomized and were taken twice weekly thereafter in conjunction with tumor measurements. […]

## Nc1ccn([C@@H]2O[C@H](CO)[C@@H](O)C2(F)F)c(=O)n1 [Gemcitabine 5, Gemcitabine]
  Ratio vs Vehicle: 1.08
